For data set [1], the system named is SCLC and NSCLC cell lines. Put plainly: Synergy Score (Loewe additivity, ATPLite growth inhibition) of combinations with the LSD1 inhibitor, Example 2 / Table 4. The following applies: 2nd API combined with (trans)-N1-((1R,2S)-2-phenylcyclopropyl)cyclohexane-1,4-diamine; for Synergy Scores in NSCLC A549: NSCLC cell line A549; for Synergy Scores in NSCLC CAL-12T: NSCLC cell line CAL-12T; for Synergy Scores in NSCLC NCI-H441: NSCLC cell line NCI-H441; for Synergy Scores in SCLC NCI-H187: SCLC cell line NCI-H187; for Synergy Scores in SCLC NCI-H446: SCLC cell line NCI-H446; for Synergy Scores in SCLC NCI-H510: SCLC cell line NCI-H510; for Synergy Scores in SCLC NCI-H1048: SCLC cell line NCI-H1048; for Synergy Scores in SCLC NCI-H1417: SCLC cell line NCI-H1417; for Synergy Scores in SCLC NCI-H1876: SCLC cell line NCI-H1876; for Synergy Scores in SCLC SBC-5: SCLC cell line SBC-5. A general note: In ATP-based viability assays light output follows the ATP content of the culture.

For data set [2], the system named is SCLC. Put plainly: Combination of the LSD1 inhibitor with SCLC standards of care etoposide and carboplatin (FIG. 2A). The following applies: combination with (trans)-N1-((1R,2S)-2-phenylcyclopropyl)cyclohexane-1,4-diamine.
Data set [3] concerns SCLC cell lines. Put plainly: In vitro Synergy Score of combinations with the LSD1 inhibitor in expanded panel of SCLC cell lines, Example 3 / Table 5. The data set is classed as cell-based, human. The following applies: 2nd API combined with (trans)-N1-((1R,2S)-2-phenylcyclopropyl)cyclohexane-1,4-diamine, scores >6.4 considered significant.

Consider `[NH2][Pt]1([NH2])[O]C(=O)C2(CCC2)C(=O)[O]1` [Carboplatin, cis-diammine(cyclobutane-1,1-dicarboxylate-O,O′)platinum(II)], for which, in data set [1], the “Synergy Scores in NSCLC A549” value came out at 0.03, the “Synergy Scores in NSCLC CAL-12T” value was 0.06, the “Synergy Scores in NSCLC NCI-H441” value turned out to be 1.27 and the “Synergy Scores in SCLC NCI-H187” value was 7.49. For the same compound, in data set [1], the “Synergy Scores in SCLC NCI-H446” value is reported as 1.58, the “Synergy Scores in SCLC NCI-H510” value came to 9.96, the “Synergy Scores in SCLC NCI-H1048” value was found to be 1.47 and the “Synergy Scores in SCLC NCI-H1417” value came out at 10.45. Further, in data set [1], the “Synergy Scores in SCLC NCI-H1876” value turned out to be 10.90 and the “Synergy Scores in SCLC SBC-5” value was 0.22. In data set [2], the “synergy with the LSD1 inhibitor to induce a cytotoxic response” value is listed as “synergized”.
Turning to `CC1(C)CCC(c2ccc(Cl)cc2)=C(CN2CCN(c3ccc(C(=O)NS(=O)(=O)c4ccc(N[C@H](CCN5CCOCC5)CSc5ccccc5)c(S(=O)(=O)C(F)(F)F)c4)cc3)CC2)C1` [ABT-263, 4-(4-{[2-(4-Chlorophenyl)-5,5-dimethyl-1-cyclohexen-1-yl]methyl}-1-piperazinyl)-N-[(4-{[(2R)-4-(4-morpholinyl)-1-(phenylsulfanyl)-2-butanyl]amino}-3-[(trifluoromethyl)sulfonyl]phenyl)sulfonyl]benzamide], in data set [1], the “Synergy Scores in NSCLC A549” value was found to be 0.89, the “Synergy Scores in NSCLC CAL-12T” value worked out at 0.01, the “Synergy Scores in NSCLC NCI-H441” value is listed as 0.75 and the “Synergy Scores in SCLC NCI-H187” value was 14.31. Also, in data set [1], the “Synergy Scores in SCLC NCI-H446” value was 0.29, the “Synergy Scores in SCLC NCI-H510” value was found to be 18.16, the “Synergy Scores in SCLC NCI-H1048” value turned out to be 14.92 and the “Synergy Scores in SCLC NCI-H1417” value is 19.10. Besides, in data set [1], the “Synergy Scores in SCLC NCI-H1876” value is given as 23.63 and the “Synergy Scores in SCLC SBC-5” value is reported as 3.35. The “Synergy Scores of SCLC cell lines DMS-114” value in data set [3] (SCLC cell line DMS-114) was determined as 0.26. In addition, the “Synergy Scores of SCLC cell lines NCI-H69” value in data set [3] (SCLC cell line NCI-H69) stood at 8.22. Moreover, the “Synergy Scores of SCLC cell lines NCI-H187” value in data set [3] (SCLC cell line NCI-H187) is listed as 2.51. Besides, the “Synergy Scores of SCLC cell lines NCI-H446” value in data set [3] (SCLC cell line NCI-H446) was 1.41. For the same compound, the “Synergy Scores of SCLC cell lines NCI-H510” value in data set [3] (SCLC cell line NCI-H510) is given as 10.70. Also, the “Synergy Scores of SCLC cell lines NCI-H526” value in data set [3] (SCLC cell line NCI-H526) was determined as 4.18. In addition, the “Synergy Scores of SCLC cell lines NCI-H1417” value in data set [3] (SCLC cell line NCI-H1417) is recorded as 12.21. In data set [3] (SCLC cell line NCI-H1876), the “Synergy Scores of SCLC cell lines NCI-H1876” value was determined as 21.80. Further, the “Synergy Scores of SCLC cell lines NCI-H2171” value in data set [3] (SCLC cell line NCI-H2171) amounted to 6.19. In addition, the “Synergy Scores of SCLC cell lines SHP-77” value in data set [3] (SCLC cell line SHP-77) is on record as 3.59.

The values are drawn from patent publication US12564559B2, “Combinations of LSD1 inhibitors for use in the treatment of solid tumors” (Oryzon Genomics, S.A., priority 2016, dated 2026).
